## Apparent affinities of Ab-14 variants for a coronavirus HR2 peptide

Data: MIT Lincoln Laboratory AlphaSeq set, Li et al. 2023, doi:10.1038/s41467-023-39022-2, as distributed in FLAb.

Target: peptide PDVDLGDISGINAS, taken from heptad repeat 2 (HR2) of SARS-CoV-2 spike.

The variants keep the light chain, the linker and the frameworks of Ab-14 (scFv order VH, a 15-residue (Gly4Ser)3 linker, VL).
VH: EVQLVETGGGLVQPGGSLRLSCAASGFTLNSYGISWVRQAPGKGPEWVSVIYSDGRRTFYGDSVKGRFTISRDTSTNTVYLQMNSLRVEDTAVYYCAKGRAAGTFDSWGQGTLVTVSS
VL: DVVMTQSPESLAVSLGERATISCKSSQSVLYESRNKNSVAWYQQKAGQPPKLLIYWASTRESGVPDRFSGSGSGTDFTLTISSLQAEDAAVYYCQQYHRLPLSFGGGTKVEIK

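The parent was found by panning a naive human phage display library on the peptide. Designed CDR sequences, proposed from the first random library and measured here. Group labels follow the data file (Ctrl: baseline library sampled from a position-specific scoring matrix, with some repeated check sequences; Rand: our label for a block that the file lists under HC and that is probably the random mutants of the ten best first-round binders; En: ensemble of fine-tuned language models; GP: Gaussian process model; GPLM: also part of the Gaussian process libraries; HC: hill climbing; Gen: genetic algorithm; Gibbs: Gibbs sampling; a sequence that several methods proposed may carry one label only). The assay is AlphaSeq: two haploid yeast populations carry antibody and antigen on their surface. After mating in shaken culture at 30 °C for 16 h, diploids were selected and their barcode pairs sequenced. A regression on co-assayed BCL2-family reference pairs converts the normalised counts of each replicate to an apparent Kd. There are six technical replicates.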

The parent's heavy chain CDRs are GFTLNSYGIS, VIYSDGRRTFYGDSVK, GRAAGTFDS; each variant's own CDRs replace them letter for letter. Values are apparent Kd, the geometric mean of the replicates that gave a signal; lower means stronger binding. An entry "not detected" has no value in the source: the pair was not observed among the diploids in any replicate. This suggests poor binding but is not conclusive. Values of this round are not directly comparable with the first-round values of the same sequences. Of ten entries with the parent sequence, four were seen in most replicates (averages 2.2 nM to 240 nM), three in one and three in none, so single entries are noisy. Where one sequence has several entries in the source, the replicates are pooled. The authors averaged sequences with at least three values out of six and counted those with two or fewer as poor binders. Background: pairings of all heavy chain designs with three empty control strains gave a value in 1% of cases (median 120 nM, 5th percentile 7.0 nM). Values in that range, when seen in few replicates, are hard to tell from nonspecific mating. Also given: how often the same scFv was detected with the empty control strains.

CDR-H1 | CDR-H2 | CDR-H3 | group | Kd | seen in | signal with controls
GFTLSSYGIS | VIYSDGRRTFYDDSVK | GRVAGTFDS | Ctrl | 9.8 nM | 6/6 | 0/18
GFTLLSYGIS | VIYADGRRTFYGDSVK | GKAAGTFDS | GPLM_Gen | not detected | 0/6 | 0/18
GMDLNEYGIS | VIYADGRRTAYINQVK | GSQSMIVSS | En_Gibbs | not detected | 0/6 | 0/18
GFDIEEYGIS | VIYADGVRTMYADDVK | GISKTYSLT | En_Gibbs | not detected | 0/6 | 0/18
GFDLEKYGIH | VIYADGIRKSYSDSVK | GDLSGTFYV | En_Gibbs | 18 nM | 6/6 | 1/18
GFDLNSYGIS | VIYSDGRRTFYIDSVK | GRAAGTFDI | GP_HC | 3.8 nM | 6/6 | 0/18
GFTLNDYGIS | VIYSDGRRTFYGDKVK | GRTAGTFDT | Ctrl | 1.6 nM | 6/6 | 0/18
GENLEEYGIS | VIYADGMREQYSDSVK | GRQGGFFIV | En_Gibbs | not detected | 0/6 | 0/18
GFTLNNYGIS | VIYSDGDRTFYGDSVK | GRAAVTFDQ | Rand | 140 nM | 1/6 | 0/18
GFTLNSYGIS | VIYSDGSRQFYGDSFK | GRHAGTFDQ | Ctrl | not detected | 0/6 | 1/18
GFNLQEYGIS | VMYADGSRVVYQDKVK | GFDAGTFDT | En_Gibbs | 180 nM | 6/6 | 1/18
GFTLNDYGIS | VQYSDGYRTQYIDSVK | GRAAGTFDS | Rand | not detected | 0/6 | 0/18
GFTLNDSGIS | VIYSDGRRTFYGDSVK | GRAALTFIS | Rand | not detected | 0/6 | 2/18
GFDLNEYGIS | VIYADGLRTAYTDSVK | GNVAGTFDI | En_Gen | 21 pM | 6/6 | 0/18
GFTLNSYGIS | VIYSDGRRTFYLDSVK | GRNAGTPDS | Ctrl | not detected | 0/6 | 0/18
GMDLNEYGIS | VIYADGRRTAYINQVK | GSNSDTVSS | En_Gibbs | not detected | 0/6 | 0/18
GFHLNSYGIS | VIYSDGRRTFYGDSVK | GQAAGTFDS | Ctrl+GPLM_Gen | 20 nM | 10/12 | 2/36
GFSLNMYGIS | VIYSDGRRTFYGDSVK | GNTAGTFDS | GP_Gibbs | 1.5 nM | 6/6 | 0/18
GFTLNNYGIS | VIYSDGRRTFYMDSVK | GRAAGTFDS | Ctrl | 140 nM | 2/6 | 0/18
GFDLNSYGIS | VIYSDGRRTFYGDSVK | GRQAGTFDM | GP_Gen | 7.0 nM | 4/6 | 0/18
GFTLNSYGIQ | VIYSDGYRTFYADSVK | GAAADTFDL | Ctrl | 91 nM | 1/6 | 0/18
GFGLEEFGIS | VIYADGSRRAYAQDVK | GGTAGHFVV | En_Gibbs | not detected | 0/6 | 0/18
GVALNSYGIS | VIYSDGRRTFYIDSVK | GRAAGTFDT | Ctrl | not detected | 0/6 | 0/18
GFDLDEYGIS | VIYADGRRTFYADSVK | GSHAGTFDT | En_HC | 270 pM | 6/6 | 0/18
GFDLNSYGIS | VIYSDGRRTFYSDSVK | GKHAGTFDS | GP_Gibbs | not detected | 0/6 | 0/18
GADLNEYGIS | VIYADGDRKAFQDDVK | GTNAGDFDI | En_Gibbs | not detected | 0/6 | 0/18
GFDLNEYGIS | VIYADGRRTAYADSVK | GQLAGTFDV | En_HC | 320 pM | 6/6 | 0/18
GFDLNEYGIS | VIYADGKRTAYIDSVK | GEVAGTFDV | En_Gen | 300 pM | 6/6 | 0/18
GFTLNSYGIS | VIYSDGRRTFYGDSVK | GWNAGTFDS | Ctrl | 350 nM | 2/6 | 0/18
GWTLNDYGIS | VIYSDGRRTQYIDSVK | GRAAGTFDS | GPLM_HC | 3.1 nM | 4/6 | 0/18
GFDLDEYGIS | VIYADGKRTAYSDSVK | GNEAGTFDL | En_Gen | 390 pM | 6/6 | 1/18
GFTLNDHGVS | VIYSDGRRTFYGDSVK | GRAAGTFDS | Ctrl | 33 nM | 6/6 | 0/18
GFTLNSYGIS | VIYSDGRRTFYIDSVK | GRAAGTTDS | Ctrl | 1.6 nM | 5/6 | 0/18
GFNLDEYGIS | VIYADGIRAAYKDKVK | GDDILLGWF | En_Gibbs | not detected | 0/6 | 1/18
GFDLNEYGIS | VIYADGVRKSYADSVK | GNVAGTFDV | En_Gen | 360 pM | 6/6 | 1/18
GFNLNSYGIS | VIYSDGRRTFYADAVK | GRTAGTFDS | GPLM_Gibbs | 1.2 nM | 6/6 | 1/18
GFTLNEYGIS | VIYSDGRRTFYGDSVK | GRAAGTFIM | GP_HC | not detected | 0/6 | 0/18
GFDINEYGIS | VIYADGRREAYAESVK | GFNQTINLV | En_Gibbs | not detected | 0/6 | 0/18
GFSLNSYGIS | VIYSDGRRTFYADSVK | GWMAGTFDS | GPLM_Gen | 2.5 nM | 6/6 | 0/18
GFDLDEYGIS | VIYADGKRTAYVDSVK | GEVAGTFDV | En_Gen | 440 pM | 6/6 | 1/18
GFNLNEYGIS | VIYADGMRTFYADSVK | GGNAGTFDV | En_HC | 1.3 nM | 6/6 | 0/18
GFTLNDYGIS | VIYSDGKRTWYIDSVK | GRAAGTFDS | GPLM_HC | not detected | 0/6 | 0/18
GFNLEEYGIS | VIYADGKRSVYADSVK | GHISGWFAI | En_Gibbs | not detected | 0/6 | 0/18
GFDLNEYGIS | VIYADGMRTAYQDSVK | GNVAGTFDV | En_Gen | 3.4 nM | 6/6 | 0/18
GFQLNEYGIS | VIYSDGRRTFYKDSVK | GRTAGTFDS | GP_Gen | not detected | 0/6 | 0/18
GFTLNEYGIS | VIYSDGRRTMYADSVK | GRCAGTFDS | GP_HC | 3.2 nM | 2/6 | 0/18
GFNLNSYGIS | VIYSDGRRTFYADDVK | GRTAGTFDS | GPLM_Gibbs | 7.5 nM | 6/6 | 2/18
GFNLDEYGIS | VIYADGSRTAYADSVK | GEVAGTFDV | En_Gen | 630 pM | 6/6 | 0/18
GITLNSYGIS | VIYSDGRRTFYGDSVK | GRAAGMVST | Ctrl | not detected | 0/6 | 0/18
GFTLNSYGIS | VIYADGRRTFYGDSVK | GQAAGTFKS | GPLM_Gen | 32 nM | 4/6 | 0/18
GFDLNSYGIS | VIYSDGRRTFYTDSVK | GQAAGTFDS | GPLM_Gen | 1.7 nM | 6/6 | 0/18
GFDLDEYGIS | VIYADGMRTAYADDVK | GGNAGTFDL | En_Gen | 660 pM | 6/6 | 0/18
GFTLNSYGSS | VIYSDGRRTFYGDKVK | GRAAGTFDS | Ctrl | not detected | 0/6 | 0/18

From the list, the first 7 with no signal in any replicate:

CDR-H1 | CDR-H2 | CDR-H3 | group | Kd | seen in | signal with controls
GFTLLSYGIS | VIYADGRRTFYGDSVK | GKAAGTFDS | GPLM_Gen | not detected | 0/6 | 0/18
GMDLNEYGIS | VIYADGRRTAYINQVK | GSQSMIVSS | En_Gibbs | not detected | 0/6 | 0/18
GFDIEEYGIS | VIYADGVRTMYADDVK | GISKTYSLT | En_Gibbs | not detected | 0/6 | 0/18
GENLEEYGIS | VIYADGMREQYSDSVK | GRQGGFFIV | En_Gibbs | not detected | 0/6 | 0/18
GFTLNSYGIS | VIYSDGSRQFYGDSFK | GRHAGTFDQ | Ctrl | not detected | 0/6 | 1/18
GFTLNDYGIS | VQYSDGYRTQYIDSVK | GRAAGTFDS | Rand | not detected | 0/6 | 0/18
GFTLNDSGIS | VIYSDGRRTFYGDSVK | GRAALTFIS | Rand | not detected | 0/6 | 2/18